From patent US5492839A, “Immunogenic ryanodine derivative and related uses” (priority 1994, dated 1996)

Protein sequences, listed by entry. Tags and fused reporters are not part of them. Lines headed by an entry give the natural chain unless they say otherwise; changes in a name come on top.
UniProt P11716: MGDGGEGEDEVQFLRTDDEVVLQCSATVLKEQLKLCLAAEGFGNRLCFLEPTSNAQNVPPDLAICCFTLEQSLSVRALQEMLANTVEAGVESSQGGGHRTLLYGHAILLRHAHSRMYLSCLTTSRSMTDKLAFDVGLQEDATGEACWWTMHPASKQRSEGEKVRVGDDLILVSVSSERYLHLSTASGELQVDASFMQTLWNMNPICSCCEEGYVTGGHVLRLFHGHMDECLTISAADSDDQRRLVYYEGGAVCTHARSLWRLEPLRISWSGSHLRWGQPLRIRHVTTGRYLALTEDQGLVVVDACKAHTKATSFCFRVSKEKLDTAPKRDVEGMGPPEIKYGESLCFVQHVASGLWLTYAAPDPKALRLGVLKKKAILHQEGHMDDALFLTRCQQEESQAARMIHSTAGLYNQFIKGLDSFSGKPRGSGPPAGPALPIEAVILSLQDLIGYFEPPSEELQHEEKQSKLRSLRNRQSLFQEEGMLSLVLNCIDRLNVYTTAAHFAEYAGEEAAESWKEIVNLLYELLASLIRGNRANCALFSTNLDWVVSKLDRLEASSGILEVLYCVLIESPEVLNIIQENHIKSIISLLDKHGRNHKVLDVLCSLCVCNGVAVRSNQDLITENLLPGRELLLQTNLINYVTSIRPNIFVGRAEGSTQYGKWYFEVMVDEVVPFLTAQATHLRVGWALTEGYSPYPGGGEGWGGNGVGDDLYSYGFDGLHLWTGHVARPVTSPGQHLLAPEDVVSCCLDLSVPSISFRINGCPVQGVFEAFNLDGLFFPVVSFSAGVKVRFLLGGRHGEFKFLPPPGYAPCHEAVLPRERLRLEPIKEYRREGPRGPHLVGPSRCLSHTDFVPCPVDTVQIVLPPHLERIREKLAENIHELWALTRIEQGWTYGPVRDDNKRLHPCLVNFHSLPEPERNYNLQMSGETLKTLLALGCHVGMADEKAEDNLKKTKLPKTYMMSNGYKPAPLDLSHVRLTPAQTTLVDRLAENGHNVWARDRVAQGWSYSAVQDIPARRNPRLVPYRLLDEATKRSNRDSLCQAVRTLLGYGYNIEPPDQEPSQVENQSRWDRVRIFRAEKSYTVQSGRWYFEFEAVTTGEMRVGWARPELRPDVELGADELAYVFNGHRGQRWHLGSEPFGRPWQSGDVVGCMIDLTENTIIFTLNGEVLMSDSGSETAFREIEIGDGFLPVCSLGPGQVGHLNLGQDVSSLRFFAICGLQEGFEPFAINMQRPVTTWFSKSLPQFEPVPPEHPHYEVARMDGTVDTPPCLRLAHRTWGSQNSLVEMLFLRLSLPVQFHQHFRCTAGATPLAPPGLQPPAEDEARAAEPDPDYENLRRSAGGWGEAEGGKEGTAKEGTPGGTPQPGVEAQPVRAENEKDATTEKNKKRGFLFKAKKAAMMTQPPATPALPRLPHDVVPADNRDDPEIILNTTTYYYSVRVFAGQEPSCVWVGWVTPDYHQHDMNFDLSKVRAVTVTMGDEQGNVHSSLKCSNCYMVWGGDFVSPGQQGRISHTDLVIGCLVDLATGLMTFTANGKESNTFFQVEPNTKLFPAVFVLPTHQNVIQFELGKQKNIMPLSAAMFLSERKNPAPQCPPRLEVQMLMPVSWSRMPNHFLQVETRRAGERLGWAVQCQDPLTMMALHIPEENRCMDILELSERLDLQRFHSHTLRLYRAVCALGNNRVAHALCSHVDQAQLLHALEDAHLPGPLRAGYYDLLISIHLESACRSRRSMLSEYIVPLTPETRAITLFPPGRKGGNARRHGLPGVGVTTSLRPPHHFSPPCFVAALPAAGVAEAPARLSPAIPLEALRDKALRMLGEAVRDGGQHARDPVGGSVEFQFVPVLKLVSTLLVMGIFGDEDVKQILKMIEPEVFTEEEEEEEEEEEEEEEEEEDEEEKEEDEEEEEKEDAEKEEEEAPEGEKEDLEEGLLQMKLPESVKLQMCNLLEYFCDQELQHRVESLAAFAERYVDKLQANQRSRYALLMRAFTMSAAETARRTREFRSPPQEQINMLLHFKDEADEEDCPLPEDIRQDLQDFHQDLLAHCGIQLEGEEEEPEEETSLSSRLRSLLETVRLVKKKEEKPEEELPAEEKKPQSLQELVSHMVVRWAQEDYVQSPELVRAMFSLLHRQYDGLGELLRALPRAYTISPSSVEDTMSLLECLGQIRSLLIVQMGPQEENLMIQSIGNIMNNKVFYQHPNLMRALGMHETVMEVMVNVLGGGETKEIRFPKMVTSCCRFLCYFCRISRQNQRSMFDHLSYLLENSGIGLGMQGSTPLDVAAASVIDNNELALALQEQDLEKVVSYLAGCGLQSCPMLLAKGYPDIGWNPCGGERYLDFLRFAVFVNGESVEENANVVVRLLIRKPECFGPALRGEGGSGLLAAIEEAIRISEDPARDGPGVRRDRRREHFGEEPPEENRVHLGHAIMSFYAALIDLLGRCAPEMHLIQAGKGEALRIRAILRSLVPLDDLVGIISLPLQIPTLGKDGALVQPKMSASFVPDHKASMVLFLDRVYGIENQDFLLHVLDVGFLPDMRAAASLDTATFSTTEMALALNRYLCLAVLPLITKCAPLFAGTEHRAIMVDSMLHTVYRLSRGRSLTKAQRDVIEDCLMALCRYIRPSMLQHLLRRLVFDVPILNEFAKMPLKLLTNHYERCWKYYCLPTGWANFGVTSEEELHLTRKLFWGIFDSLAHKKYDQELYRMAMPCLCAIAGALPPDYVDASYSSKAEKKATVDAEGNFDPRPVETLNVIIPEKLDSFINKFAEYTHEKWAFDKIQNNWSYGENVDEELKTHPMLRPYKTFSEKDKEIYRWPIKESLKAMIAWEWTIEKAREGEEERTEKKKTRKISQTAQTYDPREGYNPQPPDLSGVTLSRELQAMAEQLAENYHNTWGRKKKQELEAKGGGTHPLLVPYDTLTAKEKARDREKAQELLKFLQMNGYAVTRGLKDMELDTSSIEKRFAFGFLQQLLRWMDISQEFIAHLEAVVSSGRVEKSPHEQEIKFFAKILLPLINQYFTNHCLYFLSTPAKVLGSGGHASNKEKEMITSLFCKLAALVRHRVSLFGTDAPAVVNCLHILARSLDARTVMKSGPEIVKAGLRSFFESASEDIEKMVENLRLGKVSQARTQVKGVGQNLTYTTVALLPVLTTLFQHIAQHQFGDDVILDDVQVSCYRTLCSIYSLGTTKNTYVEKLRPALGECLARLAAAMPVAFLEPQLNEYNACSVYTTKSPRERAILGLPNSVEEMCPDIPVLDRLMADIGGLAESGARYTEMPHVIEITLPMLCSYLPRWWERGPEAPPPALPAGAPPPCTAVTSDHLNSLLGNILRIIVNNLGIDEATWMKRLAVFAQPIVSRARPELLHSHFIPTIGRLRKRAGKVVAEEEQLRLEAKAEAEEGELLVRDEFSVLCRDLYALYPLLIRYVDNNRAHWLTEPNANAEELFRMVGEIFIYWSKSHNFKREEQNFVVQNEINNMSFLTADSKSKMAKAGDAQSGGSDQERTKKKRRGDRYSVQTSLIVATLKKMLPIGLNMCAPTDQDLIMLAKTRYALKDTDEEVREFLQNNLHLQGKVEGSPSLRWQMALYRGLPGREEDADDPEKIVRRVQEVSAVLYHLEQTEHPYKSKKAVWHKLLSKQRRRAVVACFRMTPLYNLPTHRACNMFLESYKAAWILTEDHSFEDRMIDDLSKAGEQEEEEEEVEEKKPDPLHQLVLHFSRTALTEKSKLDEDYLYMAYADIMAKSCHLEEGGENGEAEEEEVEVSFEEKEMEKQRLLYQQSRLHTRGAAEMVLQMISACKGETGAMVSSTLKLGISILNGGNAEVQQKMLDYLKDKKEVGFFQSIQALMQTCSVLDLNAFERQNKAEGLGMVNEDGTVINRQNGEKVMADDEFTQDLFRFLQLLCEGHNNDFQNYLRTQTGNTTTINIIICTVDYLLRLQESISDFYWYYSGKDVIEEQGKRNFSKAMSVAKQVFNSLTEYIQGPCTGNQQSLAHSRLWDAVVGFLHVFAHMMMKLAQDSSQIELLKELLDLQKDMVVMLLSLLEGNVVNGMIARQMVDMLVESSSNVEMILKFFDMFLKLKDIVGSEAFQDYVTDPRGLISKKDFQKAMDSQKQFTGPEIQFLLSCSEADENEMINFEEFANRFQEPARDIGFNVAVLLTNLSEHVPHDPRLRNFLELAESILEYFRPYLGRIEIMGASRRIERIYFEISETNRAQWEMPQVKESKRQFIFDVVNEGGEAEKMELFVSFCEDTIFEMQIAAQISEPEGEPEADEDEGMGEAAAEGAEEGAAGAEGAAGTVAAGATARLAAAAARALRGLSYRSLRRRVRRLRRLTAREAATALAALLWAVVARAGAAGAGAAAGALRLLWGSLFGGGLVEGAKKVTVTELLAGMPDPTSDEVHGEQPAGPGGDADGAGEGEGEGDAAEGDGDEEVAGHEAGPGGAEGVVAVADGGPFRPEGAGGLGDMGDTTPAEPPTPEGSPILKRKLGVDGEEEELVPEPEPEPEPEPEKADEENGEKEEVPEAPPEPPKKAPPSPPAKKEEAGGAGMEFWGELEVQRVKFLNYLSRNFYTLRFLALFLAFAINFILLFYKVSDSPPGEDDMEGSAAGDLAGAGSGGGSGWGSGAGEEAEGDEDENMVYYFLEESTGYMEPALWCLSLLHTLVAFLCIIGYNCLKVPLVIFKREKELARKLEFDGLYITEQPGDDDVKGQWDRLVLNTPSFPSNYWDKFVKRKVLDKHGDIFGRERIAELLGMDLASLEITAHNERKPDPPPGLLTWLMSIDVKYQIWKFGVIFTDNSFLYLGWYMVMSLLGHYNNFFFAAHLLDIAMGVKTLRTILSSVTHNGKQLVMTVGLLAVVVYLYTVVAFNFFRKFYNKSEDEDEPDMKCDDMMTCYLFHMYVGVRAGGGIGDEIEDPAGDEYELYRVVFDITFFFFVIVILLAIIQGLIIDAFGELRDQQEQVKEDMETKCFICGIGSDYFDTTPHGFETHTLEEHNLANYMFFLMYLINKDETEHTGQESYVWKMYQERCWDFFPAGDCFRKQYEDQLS

Molecular target: T1, skeletal muscle ryanodine receptor (Oryctolagus cuniculus, UniProt P11716)
T1 construct: Rabbit skeletal muscle triads were prepared as previously described; from tissue; host or cells: rabbit skeletal muscle triads
Experiment: [3H]Ryanodine competition binding to rabbit skeletal muscle triads
Description: Rabbit skeletal muscle triads were prepared as previously described (Sharp et al., J. Biol. Chem. 262: 12309-12315 (1987)). […]

## CC1CCC2(O)C3(C)CC4(O)OC2(C1O)C1(O)C3(O)C(OC(=O)c2ccc[nH]2)C(O)(C(C)C)C41C (stereo not shown) [Ryanodine]
  IC50: ~20 nM
